{"source": "patent US9724544B2", "about": "“Vitamin D promoting sunscreen” (priority 2009, dated 2017)", "origin": "cited, not measured here", "conditions": "approximately 295 to 315 nm; cited from earlier work", "note": "Only a part of the results on these compounds is given; other tests are left out.", "data": [{"substance": "triethanolamine salicylate", "values": [{"measurement": "absorption in the vitamin D producing range", "result": "high percentage"}]}]}
